Source: PubChem (National Center for Advancing Translational Sciences (NCATS))
In the library only some 0.2% were active in any assay of this set; here they are far more common.
miR-21 reporter = raises the signal of a miR-21 reporter | AID 2288 | 340,000 tested, under 10 active | Potency, µM (series often up to 38.3 µM), without a hit: at the highest dose reporter change, positive = more light | HeLa miR-21 FLuc reporter, luciferase, 48 h; active = well fitted rising curve with a large enough effect; inconclusive = small, poorly fitted or top-dose-only effect; inactive = no such curve, though single readings can be large or run the other way;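 further: % of control where 0% means no effect; miR-21 action dims this reporter so a rising signal means less miR-21 action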
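Compounds were titrated across several concentrations (up to approximately 40 uM) and incubated 48 hours with HeLa miR-21-FLuc reporter cells (miR-21 target sequence downstream of FLuc, endogenous miR-21). Readout was firefly luciferase luminescence after lytic detection reagent.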
Anesthetic bind = candidate novel general anesthetic via apoferritin binding; apoferritin/1-aminoanthracene competitive binding, fluorescence; Potency, µM (series often up to 77.5 µM), for inactives: at the highest dose activity change, negative = displacement, actives largely listed as inhibitors; hit rate 0.074% among 350,000; AID 485281; note: potency is the fitted concentration of half-maximal effect; % is set by controls: 0 for no effect and ±100 for the full control effect; nearly all actives have a fitted effect of over 20% in size
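In PBS, apoferritin at 10 uM is loaded with 1-AMA from a 50% saturated solution. After 10 min of compound exposure at ambient temperature, reduced 535 nm fluorescence indicates probe displacement.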
LDHA block = blocks human lactate dehydrogenase A; P00338; purified LDHA, NADH/diaphorase-resazurin fluorescence; hits give low values; activity change, % (values are at about 110 or 230 µM); hit rate 0.15% among 480,000; AID 1347041; in the data active = activity change below about -30%; inconclusive = mostly about -25% to -30%;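 note: plate controls were DMSO wells for no effect and wells without enzyme for full effect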
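Resorufin fluorescence (ex540/em590), read at 0 and 20 min after diaphorase/resazurin addition, reports the NADH left after a 5 min room-temperature reaction of 2 nM human LDH5 with 0.06 mM NADH and 0.2 mM pyruvate.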
Numbers without * were called inactive; ? = inconclusive; . = not tested or not shown; ! = repeats disagree. Unless noted, calls come from the whole dose curve; as a rule, active = well fitted curve in the direction sought with a large enough effect; inconclusive = small, poorly fitted or top-dose-only effect, or another doubt; inactive = no such curve, though single readings can be large; an effect the other way counts as inactive or inconclusive.

1. Cc1cc(Br)cc(/C=N/NC(=O)c2ccc3c(c2)OCO3)c1O
2. O=C(Cn1ccc2c(Br)cccc21)N1CCCC1
3. N#CCOc1nc(N2CCOCC2)nc(N2CCOCC2)n1
4. CCOc1nc(OCC#N)nc(N2CCOCC2)n1
5. O=C(Nc1ccc([N+](=O)[O-])cc1Cl)c1cc(Cl)cc(Cl)c1O
6. O=C(Nc1cc(Cl)ccc1Cl)c1cc([N+](=O)[O-])cc(Br)c1O
7. Cc1ccc(NC(=O)CS(=O)CC(=O)Nc2ccc(N3CCOCC3)cc2)cc1Cl (centres undefined)
8. Cc1cc(C)c(NC(=O)CS(=O)CC(=O)Nc2ccc(N3CCOCC3)cc2)c(C)c1 (centres undefined)
9. COc1cc(/C=C/c2nc3cc(C)c(C)cc3s2)cc(OC)c1
10. CCc1nnc(CN2CCC(c3nc4ccccc4s3)CC2)o1

| assay / compound | 1 | 2 | 3 | 4 | 5 | 6 | 7 | 8 | 9 | 10 |
| --- | --- | --- | --- | --- | --- | --- | --- | --- | --- | --- |
| Anesthetic bind | -7.7% | . | -3.0% | . | . | . | ? | 0.8% | . | . |
| LDHA block | -10.5 | -0.8 | -30.7*! | -4.7 | 1.7 | -53.6* | -30.7* | -10.3 | 6.2 | -36.1* |
| miR-21 reporter | 2.3% | . | -9.9% | . | . | . | -19.6% | -0.2% | . | . |

Another view of two compounds above.
cpd | smiles | Anesthetic bind | LDHA block | miR-21 reporter
3 | N#CCOc1nc(N2CCOCC2)nc(N2CCOCC2)n1 | -3.0% | -30.7*! | -9.9%
10 | CCc1nnc(CN2CCC(c3nc4ccccc4s3)CC2)o1 | . | -36.1* | .

Continuation.
11. Cc1nnc(CN2CCC(c3nc4ccccc4s3)CC2)o1
12. CCn1c(=O)c(-c2noc(C(=O)NCc3ccc(C)o3)n2)nn(-c2ccccc2)c1=O
13. CC1CCCC(C)N1C(=O)COc1cccc(Oc2ccccc2)c1 (centres undefined)
14. CC1CCCC(C)N1C(=O)Cc1ccccc1 (centres undefined)
15. CN(CC(=O)NC(C)(C)C)C(=O)c1ccc2ccccc2n1
16. CN(CC(=O)Nc1c(Cl)cccc1Cl)C(=O)c1ccc2ccccc2n1
17. O=C(O)C(c1c[nH]c2cc(CO)ccc12)N1CCN(CCOc2ccc(Cl)cc2)CC1 (centres undefined)
18. Cc1ccc(Cl)cc1NC(=O)C(C)N(C)Cc1ccc2c(c1)OCCO2 (centres undefined)
19. Brc1cccc(OCCN2CCOCC2)c1
20. Brc1cccc(OCCN2CCCCC2)c1

| assay / compound | 11 | 12 | 13 | 14 | 15 | 16 | 17 | 18 | 19 | 20 |
| --- | --- | --- | --- | --- | --- | --- | --- | --- | --- | --- |
| Anesthetic bind | . | . | . | 12.6µM* | . | . | . | . | -23.1% | -9.3% |
| LDHA block | 7.9 | -1.4 | 0.8 | -1.8 | -32.5* | -6.8 | -4.8 | -0.5 | -21.4 | -33.5* |
| miR-21 reporter | . | . | . | 2.6% | . | . | . | . | -21.5% | -8.6% |

21. Clc1cccc(OCCN2CCOCC2)c1
22. Clc1cccc(OCCCCCN2CCOCC2)c1
23. Cc1ccc2[nH]c3c(c2c1)CCCC3
24. c1ccc(Nc2cccc(Nc3nc(CN4CCOCC4)nc4sc5c(c34)CCC5)c2)cc1
25. CCOc1ccc(N2C(=O)c3cccnc3C2Nc2ccc(C)cc2C)cc1 (centres undefined)
26. O=C(Nc1ccc(Oc2ccccc2)cc1)c1ccc(Cn2c(=O)[nH]c3ccsc3c2=O)cc1
27. O=C(Nc1ccc(Cl)c(Cl)c1)c1ccc(Cn2c(=O)[nH]c3ccsc3c2=O)cc1
28. COc1ccc(-c2nc(C)c(-c3ccccc3)s2)cc1OC
29. N#Cc1cnc2ncnn2c1N
30. N#Cc1cn2ncnc2nc1N

| assay / compound | 21 | 22 | 23 | 24 | 25 | 26 | 27 | 28 | 29 | 30 |
| --- | --- | --- | --- | --- | --- | --- | --- | --- | --- | --- |
| Anesthetic bind | ? | -9.8% | . | . | . | -12.8% | -7.8% | . | . | . |
| LDHA block | -34.2* | -3.1 | 62.3 | 12.1 | -7.2 | -24.4 | -32.2* | -23.8 | 11.7 | -30.6* |
| miR-21 reporter | -9.0% | -6.4% | . | . | . | -1.0% | -6.1% | . | . | . |

31. CC(C)(C)OC(=O)Nc1ccc(C(=O)NCC(c2ccco2)N2CCCC2)cc1 (centres undefined)
32. Cc1ccc(C(CNC(=O)c2ccc(NC(=O)OC(C)(C)C)cc2)N2CCOCC2)o1 (centres undefined)
33. Cc1cccc(-c2ocnc2C(=O)NCC(C)c2ccccc2)c1 (centres undefined)
34. COc1ccc(CNC(=O)c2nc(-c3ccccc3)oc2C)cc1OC
35. CSc1ccccc1NC(=O)CN(C)C(C)C(=O)NCc1ccc2c(c1)OCO2 (centres undefined)
36. CC(C(=O)Nc1ccc2c(c1)OCO2)N(C)CC(=O)Nc1ccccc1Cl (centres undefined)
37. Cc1ccc(CNC(=O)CSc2ncc3c(n2)-c2ccc(Cl)cc2N(C)S3(=O)=O)cc1
38. C=CCn1c(COc2ccccc2)nc2ccccc21
39. c1ccc(OCCn2c(COc3ccccc3)nc3ccccc32)cc1
40. O=C(NC1CCCc2ccccc21)C(c1ccccc1)c1ccccc1 (centres undefined)

| assay / compound | 31 | 32 | 33 | 34 | 35 | 36 | 37 | 38 | 39 | 40 |
| --- | --- | --- | --- | --- | --- | --- | --- | --- | --- | --- |
| Anesthetic bind | . | . | . | . | . | . | . | 70.8µM* | 10.4% | . |
| LDHA block | -5.2 | -34.2* | -1.9 | -6.8 | -46.6* | -3.2 | 0.1 | -0.9 | -5.0 | 1.7 |
| miR-21 reporter | . | . | . | . | . | . | . | -32.2% | -16.5% | . |

41. CC(CCC(C)[n+]1cccc(Br)c1)[n+]1cccc(Br)c1 (centres undefined)
42. C[n+]1cccc(Br)c1
43. Cc1ccc(CNC(=O)C(C)N2CCN(c3ccc([N+](=O)[O-])c4cnccc34)CC2)cc1 (centres undefined)
44. O/N=C1\CCCc2c1[nH]c1ccc(OCc3ccccc3)cc21
45. COC(=O)CC(NC(=O)c1ccc(C#N)cc1)c1ccc(C)cc1 (centres undefined)
46. CS(=O)(=O)NNC(=O)c1cc2cc3ccccc3nc2s1
47. NNC(=O)c1cc2cc3ccccc3nc2s1
48. COC(=O)C1=C(C)NC(=O)NC1c1cccc(Oc2ccc(Cl)cc2)c1 (centres undefined)
49. O=[N+]([O-])c1ccc(O)c(/C=N/Nc2nn[nH]n2)c1
50. Oc1ccccc1/C=N/Nc1nn[nH]n1

| assay / compound | 41 | 42 | 43 | 44 | 45 | 46 | 47 | 48 | 49 | 50 |
| --- | --- | --- | --- | --- | --- | --- | --- | --- | --- | --- |
| Anesthetic bind | . | . | . | . | . | 1.5% | -19.8% | . | -13.2% | -6.3% |
| LDHA block | -30.5* | 1.1 | 9.2 | 1.2 | 0.6 | 10.2 | -34.2* | 4.7 | -46.0* | -4.1 |
| miR-21 reporter | . | . | . | . | . | -28.2% | 10.8% | . | -0.3% | 0.4% |

51. O=C(NNC(=S)Nc1ccccc1)c1ccccc1Br
52. C[n+]1c(/C=C/c2ccc(O)cc2)ccc2ccccc21
53. C[n+]1c(/C=C/c2ccc3c(c2)OCO3)ccc2ccccc21
54. Cc1ccc(S(=O)(=O)N2CCC(C(=O)N3CCC(CCc4ccc(O)cc4)CC3)CC2)c(C)c1
55. CSc1cccc(NC(=O)COc2coc(CN3CCSCC3)cc2=O)c1
56. COc1ccc(NC(=O)COc2coc(CN3CCSCC3)cc2=O)cc1
57. Nc1nc(SCc2ccccc2)ns1
58. Nc1nc(SCc2ccc(Cl)cc2)ns1
59. COc1cc(/C=C/C(=O)OCc2cc(=O)oc3cc(C)ccc23)ccc1O
60. O=Cc1c[nH]c2cc(OCc3ccccc3)ccc12

| assay / compound | 51 | 52 | 53 | 54 | 55 | 56 | 57 | 58 | 59 | 60 |
| --- | --- | --- | --- | --- | --- | --- | --- | --- | --- | --- |
| Anesthetic bind | . | -4.6% | -9.6% | . | . | . | ? | 50.1µM* | . | . |
| LDHA block | 11.7 | -1.4 | -32.6* | -17.1 | -37.9* | -13.2 | -6.0 | -2.7 | 2.3 | 3.9 |
| miR-21 reporter | . | -16.0% | -52.9% | . | . | . | -47.0% | -52.3% | . | . |

61. CCCCCC(=O)N1C[C@H](n2cc(C3CC3)nn2)[C@@H](O)C[C@@H]1c1ccc(C)cc1
62. CCCCCC(=O)N1C[C@@H](n2cc(C3CC3)nn2)[C@H](O)C[C@@H]1c1ccc(C)cc1
63. COc1ccc2nc(NS(=O)(=O)c3ccc(Cl)cc3)c(Nc3cc(C)ccc3OC)nc2c1
64. O=C(CNC(=O)c1cccc(Br)c1)N/N=C/c1ccc[nH]1
65. NNC(=O)CNC(=O)c1cccc(Br)c1
66. NC(=O)NC(=O)CSC1=Nc2ccccc2CS1
67. CCN1CCN(Cc2cccc(Oc3ccc(Cl)cc3)c2)CC1
68. CCN1CCN(Cc2cccc(Oc3ccccc3)c2)CC1
69. CC(C)=CC(=O)Nc1sc(C)c(C)c1C#N
70. C[C@H](O)[C@@H]1C(=O)N2CCc3ccc(-c4ccccc4)cc3[C@@H]2C[C@@H]1N(C)C(=O)c1cccnc1
71. Cc1ccccc1Oc1ccc2c(c1)[C@@H]1C[C@H](N(C)C(=O)c3cccnc3)[C@H]([C@H](C)O)C(=O)N1CC2

| assay / compound | 61 | 62 | 63 | 64 | 65 | 66 | 67 | 68 | 69 | 70 | 71 |
| --- | --- | --- | --- | --- | --- | --- | --- | --- | --- | --- | --- |
| Anesthetic bind | . | . | . | ? | 28.2µM* | . | -17.9% | -22.8% | . | . | . |
| LDHA block | -2.6 | -31.9* | -1.1 | -7.0 | 1.8 | 5.8 | -4.3 | -31.8* | 1.9 | -0.7 | -32.4* |
| miR-21 reporter | . | . | . | 6.9% | -3.0% | . | 10.8% | -0.3% | . | . | . |

Record cards (already shown).
Record of Cc1cc(Br)cc(/C=N/NC(=O)c2ccc3c(c2)OCO3)c1O : Anesthetic bind: -7.7%; LDHA block: -10.5; miR-21 reporter: 2.3%
Record of CCCCCC(=O)N1C[C@H](n2cc(C3CC3)nn2)[C@@H](O)C[C@@H]1c1ccc(C)cc1 : Anesthetic bind: .; LDHA block: -2.6; miR-21 reporter: .
